According to PubChem BioAssay AID1453 (NMMLSC, 2008):
The entries are a selection whose mix differs from that of the whole data set. Some tests of the compounds listed are not included; inactive here does not mean inactive elsewhere. The source made the active and inactive calls.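 The calls were made as follows: active = inhibition above 50%; inactive = the rest.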

Chains of the proteins cited; added tags and fusions are not shown.
UniProt Q9UNQ0, whole entry: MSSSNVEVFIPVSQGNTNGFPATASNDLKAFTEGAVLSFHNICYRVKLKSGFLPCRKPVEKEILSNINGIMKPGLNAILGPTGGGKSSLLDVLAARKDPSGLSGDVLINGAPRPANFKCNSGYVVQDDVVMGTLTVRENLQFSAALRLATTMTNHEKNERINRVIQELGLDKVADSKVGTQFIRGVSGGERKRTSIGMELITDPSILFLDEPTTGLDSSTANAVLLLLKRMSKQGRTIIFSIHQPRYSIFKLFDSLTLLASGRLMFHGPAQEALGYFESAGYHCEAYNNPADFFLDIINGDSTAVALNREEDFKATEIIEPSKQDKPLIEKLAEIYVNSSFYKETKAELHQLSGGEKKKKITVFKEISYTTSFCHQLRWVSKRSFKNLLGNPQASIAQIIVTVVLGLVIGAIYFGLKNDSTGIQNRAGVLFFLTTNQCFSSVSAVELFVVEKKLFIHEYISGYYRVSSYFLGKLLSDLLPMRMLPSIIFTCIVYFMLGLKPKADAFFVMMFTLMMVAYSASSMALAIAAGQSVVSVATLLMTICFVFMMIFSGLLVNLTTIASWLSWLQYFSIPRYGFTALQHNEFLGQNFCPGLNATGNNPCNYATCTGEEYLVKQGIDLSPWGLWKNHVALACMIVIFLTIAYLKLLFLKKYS

Molecular target: Broad substrate specificity ATP-binding cassette transporter ABCG2 (Homo sapiens) (UniProt Q9UNQ0)
Test: blockers of JC-1 export by ABCG2 – single point, IgMXP3 cells, ABCB1 counter-screen paired, confirmation (AID 1453);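 also: 0% = DMSO wells and 100% = nicardipine pump inhibitor wells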
Details: JC-1 efflux, flow cytometry, at 6.6 µM, active compounds read high
In short: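 Assay system: drug-resistant IgMXP3 cells expressing human ABCG2; Input: 3 million cells per mL final in well; Reagent: JC-1 substrate; Doses: single test compound dose, 6.6 µM final; Times: 10 min end-over-end mixing at 25 °C before reading; Technique: high-throughput flow cytometry, JC-1 green median fluorescence, 530 ± 20 nm.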

For `CN(C)c1cccc(C(=O)NCC2(N(C)C)CCCCC2)c1`, the inhibition was inactive: 15.2%.
